# Laboratory results: published antibiotic growth screens (doi:10.1038/s41589-023-01349-8)
# The other results are listed elsewhere or left out.
# Tested on: A. baumannii ATCC 17978
# Assay: relative growth (fraction of control); higher = less inhibition
# Details: 50 µM
row,SMILES,relative growth
1,C=CC1=C(C)C2=NC/1=C\C1=NC(=C\C3=NC(=C\C4=NC(=C\2)/C(C)=C4CCC(=O)O)/C(CCC(=O)O)=C3C)/C(C=C)=C1C,1.1
2,O=C(N1CCOCC1)[C@@]1(CCS(=O)(=O)c2ccccc2)N=C(c2ccc(OCCCO)cc2)O[C@H]1c1ccccc1,0.753
3,NCCCC[C@H](N[C@@H](CCc1ccccc1)C(=O)O)C(=O)N1CCC[C@H]1C(=O)O,1.04
4,COCC(=O)Nc1ccc2c(c1)C(=O)N(C)[C@H]1CC[C@@H](CC(=O)NCc3ccccc3Cl)O[C@@H]1CO2,1
5,COCC(=O)Nc1ccc2c(c1)OC[C@H](C)N(Cc1ccccc1OC)C[C@@H](C)[C@H](OC)CN(C)C2=O,0.843
6,N[C@@H](CC(=O)O)c1cccc([N+](=O)[O-])c1,1.09
7,CCN1C(=O)CS/C1=N\N1CCOCC1,0.997
8,CCCC(=O)Nc1ccc2c(c1)C(=O)N(C)[C@@H]1CC[C@H](CC(=O)NCCN3CCCCC3)O[C@H]1CO2,1.07
9,c1ccc(Nc2ncnc3sc(-c4ccccc4)cc23)cc1,0.939
10,CO[C@@H]1CN(C)C(=O)c2cc(NS(=O)(=O)CC(F)(F)F)ccc2OC[C@H](C)N(Cc2cccnc2)C[C@H]1C,1
11,CC(C)(C)NC(=O)C[n+]1cccc(/C=N/O)c1,0.945
12,CO[C@H]1CN(C)C(=O)c2ccc(NC(=O)C3CC3)cc2OC[C@@H](C)N(C(=O)C2CCOCC2)C[C@@H]1C,0.971
13,CO[C@@H]1CN(C)C(=O)c2cc(NC(=O)Nc3cccc(Cl)c3)ccc2OC[C@@H](C)N(C(=O)Nc2c(C)noc2C)C[C@@H]1C,1.26
14,C[C@H]1CN([C@@H](C)CO)S(=O)(=O)c2ccc(-c3ccc(C(=O)N(C)C)cc3)cc2O[C@H]1CN(C)C(=O)C1CCC1,0.918
15,CN1C(=O)C[C@H](C(=O)O)[C@H]1c1cccnc1,1.1
16,CCCNC(=O)N[C@@H]1C=C[C@@H](CC(=O)N2CCN(C)CC2)O[C@@H]1CO,0.889
17,O=C(C[C@@H]1C=C[C@H](NS(=O)(=O)c2ccc(F)cc2)[C@@H](CO)O1)NCc1ccc(Cl)c(Cl)c1,0.858
18,C=CCC[C@@H](Cc1ccc(F)cc1)C(=O)OC[C@@H](Cc1c[nH]c2ccccc12)NC(=O)[C@H](CC=C)CC(=O)N(CCO)Cc1ccccc1,1.47
19,CO[C@H]1CN(C)C(=O)c2cc(NC(=O)Nc3ccccc3F)ccc2OC[C@H](C)N(Cc2ccccc2C(=O)O)C[C@@H]1C,1.08
20,O=C(C[C@H]1CC[C@@H](NS(=O)(=O)c2ccccc2)[C@H](CO)O1)NCc1ccncn1,1.17
21,COc1ccc(S(=O)(=O)N[C@H]2CC[C@H](CCNC(=O)CN3CCOCC3)O[C@H]2CO)cc1,1.05
22,C[C@H](N)[C@H](O)c1cccc(O)c1.O=C(O)[C@H](O)[C@@H](O)C(=O)O,1.01
23,O=C(/C=C/c1ccc(O)c(O)c1)O[C@H]1[C@H](O)C[C@](O)(C(=O)O)C[C@H]1OC(=O)/C=C/c1ccc(O)c(O)c1,0.947
24,COCC#Cc1cnc2c(c1)C(=O)N([C@H](C)CO)C[C@@H](C)[C@@H](CN(C)S(=O)(=O)c1cn(C)cn1)O2,1.06
25,O=C(C1=C[C@H](c2ccc3c(c2)OCO3)C[C@H](OCCCCO)O1)N1CCN(Cc2ccc3c(c2)OCO3)CC1,0.826
26,COc1ccccc1S(=O)(=O)N[C@@H]1C=C[C@@H](CC(=O)N2CCN(C)CC2)O[C@@H]1CO,1.01

row,SMILES,relative growth
1,COC1=C(OC)C(=O)C(CCCCCCCCCCO)=C(C)C1=O,1.55
2,O=C(C[C@@H]1C=C[C@H](NC(=O)CN2CCOCC2)[C@H](CO)O1)NC1CCC1,0.999
3,CC1(C)CC[C@]2(C(=O)O[C@@H]3O[C@H](CO)[C@@H](O[C@H]4OC[C@](O)(CO)[C@H]4O)[C@H](O)[C@H]3O)CC[C@]3(C)C(=CC[C@H]4[C@@]5(C)C[C@@H](O)[C@H](O)[C@@](C)(CO)[C@@H]5[C@H](O)C[C@]43C)[C@@H]2C1,1.14
4,CCS(=O)(=O)NCC[C@H]1CC[C@H](NS(=O)(=O)c2cccc(F)c2)[C@@H](CO)O1,0.955
5,COc1cc(-c2coc3cc(O)c(OC)c(O)c3c2=O)cc(O)c1OC,1.01
6,CC(C)CC#Cc1ccc2c(c1)O[C@H](CN(C)C(=O)NC1CCCC1)[C@H](C)CN([C@H](C)CO)S2(=O)=O,1.08
7,NC(=O)Cn1cnc2sc3c(c2c1=O)CCC3,1.01
8,C[C@@H]1CN([C@@H](C)CO)S(=O)(=O)c2ccc(C#CC3CCCC3)cc2O[C@H]1CN(C)C(=O)Cc1ccncc1,0.677
9,CC(C)CC#Cc1ccc2c(c1)O[C@H](CN(C)C(=O)Cc1cccnc1)[C@H](C)CN([C@H](C)CO)S2(=O)=O,0.953
10,CCOC(=O)[C@H]1CC(CC2OCCO2)=NO1,1.02
11,O=C(O)CCCCCCC(=O)O,1
12,CCCC(=O)Nc1ccc(OCC(O)CNC(C)C)c(C(C)=O)c1.Cl (configuration not stated),1.06
13,Nc1ccc(S(=O)(=O)[O-])cc1.Nc1ccc(S(=O)(=O)[O-])cc1.[Zn+2],0.999
14,CC(C)C[C@@H]1NC(=O)[C@H]2C[C@@H](C(=O)NCCCCCCNC(=O)CS)[C@@H](c3cccc(OCCO)c3)N2C1=O,1.09
15,O=C(N[C@@H]1CC[C@@H](CC(=O)N2CCOCC2)O[C@H]1CO)c1ccccn1,0.938
16,COC(=O)c1cc(=O)nc2n1[C@H]1O[C@H](CO)[C@H](O)[C@H]1O2,1.03
17,COc1ccccc1C(=O)N1CCNCC1,1.1
18,N#Cc1nn(-c2ccccc2)c(=O)[nH]c1=O,0.946
19,N[C@@H](Cc1ccccc1F)C(=O)O,0.956
20,CC(=O)NCCCC[C@@H]1NC(=O)[C@H]2C[C@@H](C(=O)O)[C@@H](c3ccc(O)cc3)N2C1=O,1.73
21,Cc1ccc(S(=O)(=O)N[C@@H](Cc2ccccc2)C(=O)NCCCn2cc(-c3ccccc3N)nn2)cc1,1.09
22,NC(=O)N/N=C/c1ccc([N+](=O)[O-])o1,0.467
23,COCC(=O)Nc1ccc2c(c1)CC(=O)N2,1.02
24,Cc1ccc(NC2C(=O)NC(=O)N2N)cc1 (configuration not stated),0.875
25,COCC(=O)N(C)C[C@@H]1Oc2cc(C#CCC3CCCC3)ccc2S(=O)(=O)N([C@@H](C)CO)C[C@@H]1C,0.673
26,COc1c(-c2ccccc2)oc2cc(O)cc(O)c2c1=O,0.965
